Series [1] has as its system patients with HER2-positive ABC treated with T-DXd. Conditions: at data cutoff; 59 patients.
Series [2] relates to patients with HER2+/HER2-low MBC treated with T-DXd. Nature of the series: Association between N&V in one cycle and fatigue in the next, logistic regression. The class given is in vivo, human. Conditions: for Probability to Develop Fatigue: estimate from logistic model.

The text below walks through data of patent US20250387420A1, “Prevention of Nausea and Vomiting from Antibody-Drug Conjugates and other Long-Acting Emetogenics” (Helsinn Healthcare SA, priority 2024, published 2025).

For the substance trastuzumab deruxtecan [T-DXd], the “patients who discontinued due to death” value in series [1] is given as 7%. The “Probability to Develop Fatigue” value in series [2] (Previous CINV NO) is 0.2176; in series [2] (Previous CINV YES), 0.4579. Further, the results for the “estimated probability of developing fatigue” value in series [2] (patients who experienced NV in the prior cycle) and in series [2] (patients without NV in the prior cycle) were 45.8% and 21.8%, respectively.
